# Results reported in PubChem BioAssay AID2662 (National Center for Advancing Translational Sciences (NCATS), 2010).
# Amino acid sequences for entries named in this document (tags omitted).
# UniProt Q03164, whole entry: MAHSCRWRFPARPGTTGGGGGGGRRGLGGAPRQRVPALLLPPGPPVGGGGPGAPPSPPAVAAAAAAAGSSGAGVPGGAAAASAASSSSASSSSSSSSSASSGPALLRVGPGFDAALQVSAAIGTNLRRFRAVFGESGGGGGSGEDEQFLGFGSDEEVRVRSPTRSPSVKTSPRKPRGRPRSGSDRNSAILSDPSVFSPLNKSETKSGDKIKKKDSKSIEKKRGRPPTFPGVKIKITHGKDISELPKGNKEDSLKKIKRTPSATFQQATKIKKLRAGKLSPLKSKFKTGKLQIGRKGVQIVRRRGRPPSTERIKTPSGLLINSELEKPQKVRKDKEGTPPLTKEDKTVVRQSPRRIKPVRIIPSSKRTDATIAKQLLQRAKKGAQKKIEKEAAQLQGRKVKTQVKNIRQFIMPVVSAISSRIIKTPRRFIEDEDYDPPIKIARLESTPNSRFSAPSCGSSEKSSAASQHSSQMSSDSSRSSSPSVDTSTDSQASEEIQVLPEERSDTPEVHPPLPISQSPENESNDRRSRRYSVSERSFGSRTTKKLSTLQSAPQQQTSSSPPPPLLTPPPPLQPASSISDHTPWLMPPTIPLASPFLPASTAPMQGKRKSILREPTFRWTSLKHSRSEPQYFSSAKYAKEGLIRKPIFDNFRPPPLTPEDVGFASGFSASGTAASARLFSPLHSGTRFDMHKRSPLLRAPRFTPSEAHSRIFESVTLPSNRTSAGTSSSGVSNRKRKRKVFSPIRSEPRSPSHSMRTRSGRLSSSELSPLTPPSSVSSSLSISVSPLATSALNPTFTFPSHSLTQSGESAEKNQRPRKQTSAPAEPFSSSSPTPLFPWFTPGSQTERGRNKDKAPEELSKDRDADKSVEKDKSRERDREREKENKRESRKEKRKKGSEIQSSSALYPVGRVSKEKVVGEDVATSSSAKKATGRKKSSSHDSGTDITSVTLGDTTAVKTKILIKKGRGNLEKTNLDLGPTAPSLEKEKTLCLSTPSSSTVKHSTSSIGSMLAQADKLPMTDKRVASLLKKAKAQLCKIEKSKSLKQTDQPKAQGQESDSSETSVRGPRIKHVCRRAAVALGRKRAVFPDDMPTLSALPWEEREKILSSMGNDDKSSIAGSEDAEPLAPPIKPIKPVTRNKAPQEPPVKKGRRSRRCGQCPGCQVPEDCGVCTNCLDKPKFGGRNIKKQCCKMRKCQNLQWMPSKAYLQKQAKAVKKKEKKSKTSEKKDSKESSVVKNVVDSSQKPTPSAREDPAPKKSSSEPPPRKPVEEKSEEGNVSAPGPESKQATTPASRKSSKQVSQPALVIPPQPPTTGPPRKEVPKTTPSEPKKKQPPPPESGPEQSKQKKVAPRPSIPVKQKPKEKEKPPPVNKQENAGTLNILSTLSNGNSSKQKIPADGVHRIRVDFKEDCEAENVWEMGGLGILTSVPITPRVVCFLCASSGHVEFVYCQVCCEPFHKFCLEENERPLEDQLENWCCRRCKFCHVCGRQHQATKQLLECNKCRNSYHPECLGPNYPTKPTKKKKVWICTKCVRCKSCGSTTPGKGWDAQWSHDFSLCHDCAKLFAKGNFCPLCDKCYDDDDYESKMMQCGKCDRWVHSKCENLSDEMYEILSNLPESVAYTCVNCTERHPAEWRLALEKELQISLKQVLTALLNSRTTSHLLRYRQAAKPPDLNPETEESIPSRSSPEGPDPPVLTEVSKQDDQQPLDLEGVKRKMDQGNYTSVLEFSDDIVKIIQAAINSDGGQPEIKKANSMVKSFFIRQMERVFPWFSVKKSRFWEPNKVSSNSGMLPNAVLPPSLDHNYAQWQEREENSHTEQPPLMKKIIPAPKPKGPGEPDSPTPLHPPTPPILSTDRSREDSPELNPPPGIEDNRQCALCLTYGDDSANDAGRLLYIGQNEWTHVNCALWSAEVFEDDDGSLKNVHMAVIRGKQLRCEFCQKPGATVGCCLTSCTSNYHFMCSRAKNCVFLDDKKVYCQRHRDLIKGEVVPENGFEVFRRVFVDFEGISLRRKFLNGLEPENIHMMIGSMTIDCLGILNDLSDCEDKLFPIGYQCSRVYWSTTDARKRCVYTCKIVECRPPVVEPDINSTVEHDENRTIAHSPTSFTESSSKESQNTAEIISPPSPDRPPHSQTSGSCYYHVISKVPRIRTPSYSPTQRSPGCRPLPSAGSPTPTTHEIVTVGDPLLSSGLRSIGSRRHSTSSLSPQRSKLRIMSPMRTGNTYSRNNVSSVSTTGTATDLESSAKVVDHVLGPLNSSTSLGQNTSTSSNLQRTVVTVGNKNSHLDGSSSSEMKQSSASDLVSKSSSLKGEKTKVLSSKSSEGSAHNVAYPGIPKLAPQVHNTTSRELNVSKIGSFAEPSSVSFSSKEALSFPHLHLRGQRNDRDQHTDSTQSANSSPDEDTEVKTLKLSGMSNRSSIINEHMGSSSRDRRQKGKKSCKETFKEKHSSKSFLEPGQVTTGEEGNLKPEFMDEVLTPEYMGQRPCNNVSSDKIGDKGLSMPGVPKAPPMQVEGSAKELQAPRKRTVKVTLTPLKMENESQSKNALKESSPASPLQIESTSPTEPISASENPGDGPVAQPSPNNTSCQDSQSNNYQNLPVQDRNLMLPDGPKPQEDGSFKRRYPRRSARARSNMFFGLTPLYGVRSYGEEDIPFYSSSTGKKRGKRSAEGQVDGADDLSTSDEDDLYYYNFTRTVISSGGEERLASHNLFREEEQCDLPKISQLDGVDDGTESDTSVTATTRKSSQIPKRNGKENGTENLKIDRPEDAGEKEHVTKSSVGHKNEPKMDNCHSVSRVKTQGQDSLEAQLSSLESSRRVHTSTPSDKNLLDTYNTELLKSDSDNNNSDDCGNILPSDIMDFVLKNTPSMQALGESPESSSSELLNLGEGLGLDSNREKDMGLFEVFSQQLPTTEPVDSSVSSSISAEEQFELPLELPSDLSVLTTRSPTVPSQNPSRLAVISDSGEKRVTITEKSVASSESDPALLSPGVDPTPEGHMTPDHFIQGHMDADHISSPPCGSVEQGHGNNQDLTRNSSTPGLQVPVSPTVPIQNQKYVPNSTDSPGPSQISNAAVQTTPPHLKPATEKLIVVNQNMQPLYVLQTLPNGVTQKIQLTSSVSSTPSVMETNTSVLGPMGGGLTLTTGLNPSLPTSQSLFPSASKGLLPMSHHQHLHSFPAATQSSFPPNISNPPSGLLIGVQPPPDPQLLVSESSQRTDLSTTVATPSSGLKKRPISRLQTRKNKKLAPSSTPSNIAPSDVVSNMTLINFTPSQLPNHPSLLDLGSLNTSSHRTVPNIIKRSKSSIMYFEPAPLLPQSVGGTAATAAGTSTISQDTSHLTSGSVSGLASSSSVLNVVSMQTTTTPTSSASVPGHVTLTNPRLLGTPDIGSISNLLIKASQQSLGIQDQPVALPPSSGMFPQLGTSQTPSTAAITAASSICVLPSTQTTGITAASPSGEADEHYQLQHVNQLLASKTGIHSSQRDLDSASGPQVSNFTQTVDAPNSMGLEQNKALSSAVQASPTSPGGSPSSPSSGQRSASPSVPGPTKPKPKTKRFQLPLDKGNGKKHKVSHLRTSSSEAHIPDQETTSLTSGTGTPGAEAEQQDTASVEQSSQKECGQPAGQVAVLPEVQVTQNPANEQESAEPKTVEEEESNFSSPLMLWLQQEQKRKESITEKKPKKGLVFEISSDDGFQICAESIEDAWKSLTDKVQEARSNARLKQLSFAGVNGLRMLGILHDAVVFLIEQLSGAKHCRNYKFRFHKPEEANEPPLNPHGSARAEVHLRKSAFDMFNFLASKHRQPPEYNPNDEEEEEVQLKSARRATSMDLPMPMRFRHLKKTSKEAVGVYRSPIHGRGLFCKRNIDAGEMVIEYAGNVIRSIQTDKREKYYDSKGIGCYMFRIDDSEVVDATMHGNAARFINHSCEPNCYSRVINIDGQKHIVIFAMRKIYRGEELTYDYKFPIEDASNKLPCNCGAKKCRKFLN
# The list shows a part of the results, in another mix than the full data. Activity calls are given as the source filed them. Calls follow the shape of the dose curve; as a rule, active = well fitted inhibition curve with a large enough effect in the polarisation, with a control signal flat (not every such curve was filed as active); inconclusive = small, poorly fitted or top-dose-only effect, or effect the other way, or a change in a side signal; inactive = no such curve, though single readings can be large or run the other way; the % refers to the polarisation.
# Molecular target: Histone-lysine N-methyltransferase 2A (Homo sapiens) (UniProt Q03164)
# Test: qHTS Fluorescence Polarization Assay for Inhibitors of MLL CXXC domain - DNA interaction
# Conditions: MLL-CXXC / FITC-HOXA9 DNA fluorescence polarization; at 115 µM (top of the series) unless noted
row,SMILES,"activity change, negative = inhibition"
1,COc1ccccc1OP(C)(=O)Nc1ccc(C)c(C)c1 (stereo not drawn),inactive: -4.39%
2,COc1ccc(OP(C)(=O)Nc2ccccc2Br)cc1 (stereo not drawn),inactive: 2.87%
3,Cc1cc(C)cc(OP(C)(=O)Nc2cccc(C(F)(F)F)c2)c1 (stereo not drawn),inactive: -0.34%
4,CP(=O)(Nc1ccccc1)Oc1ccc(F)cc1 (stereo not drawn),inactive: -1.94%
5,CCCCCOc1ccc(NP(C)(=O)Oc2ccc(Cl)cc2Cl)cc1 (stereo not drawn),inactive: 7.05%
6,CCN(CC)CCCOC(=O)C(O)(c1ccccc1)C1CCCCC1 (stereo not drawn),inactive: -2.37%
7,CCOC(=O)c1ccc(NP(C)(=O)Oc2ccc(F)cc2)cc1 (stereo not drawn),inactive: -1.29%
8,COc1ccc(OP(C)(=O)Nc2ccc(SC(F)(F)F)cc2)cc1 (stereo not drawn),inactive: -3.53%
9,O=C(OCCN1CCN(CCOCc2ccccc2)CC1)C(O)(c1ccccc1)c1ccccc1,inactive: 4.79%
10,CP(=O)(Nc1ccccc1F)Oc1ccccc1 (stereo not drawn),inactive: 0.0583%
11,CC(C)c1ccc(OP(C)(=O)Nc2ccc(SC(F)(F)F)cc2)cc1 (stereo not drawn),inactive: 2.81%
12,Cc1ccccc1NP(C)(=O)Nc1ccccc1C,inactive: 3.28%
13,CP(=O)(Nc1ccc2c(c1)OCCO2)Oc1ccccc1 (stereo not drawn),inactive: 6.05%
14,CCOP(C)(=S)SCC(=O)NC(C)(CC)C(=O)O (stereo not drawn),inactive: -2.45%
15,CP(=O)(Nc1ccc(SC(F)(F)F)cc1)Oc1ccc(F)cc1 (stereo not drawn),inactive: -10.5%
16,O=[N+]([O-])c1ccc(OP2(=O)COCCO2)cc1 (stereo not drawn),inactive: -0.0424%
17,Cc1cc(-c2cccc3ccccc23)c(C)cn1.O=[N+]([O-])c1cc([N+](=O)[O-])c(O)c([N+](=O)[O-])c1,inactive: -8.03%
18,CN(C)CCOC(=O)C(O)(c1ccccc1)C1CCCCC1 (stereo not drawn),inactive: 7.19%
19,COc1ccc(NP(C)(=O)Oc2ccccc2OC)cc1 (stereo not drawn),inactive: -4.74%
20,COc1ccc(OP(C)(=O)Nc2cccc(Br)c2)cc1 (stereo not drawn),inactive: -14.8%

row,SMILES,"activity change, negative = inhibition"
1,CP(=O)(Nc1ccc(SC(F)(F)F)cc1)Oc1ccccc1 (stereo not drawn),inactive: 11%
2,CCCOc1ccc(NP(C)(=O)Oc2ccc(Cl)cc2)cc1 (stereo not drawn),inactive: 11.2%
3,CN1CCCCC1COC(=O)C1(O)c2ccccc2CCc2ccccc21 (stereo not drawn),inactive: 4.83%
4,COc1ccccc1OP(C)(=O)Nc1c(C)cccc1C (stereo not drawn),inactive: -3.3%
5,O=[N+]([O-])c1cc([N+](=O)[O-])c(Nc2nnnn2CCO)c([N+](=O)[O-])c1,inactive: 1.52%
6,Cc1nc2ccc3ccccc3c2s1.O=[N+]([O-])c1cc([N+](=O)[O-])c(O)c([N+](=O)[O-])c1,inactive: -1.28%
7,O=[N+]([O-])c1cc([N+](=O)[O-])c(-n2nnc3ccccc32)c([N+](=O)[O-])c1,inactive: -0.55%
8,Cc1ccc(C)c(NP(C)(=O)Oc2ccccc2)c1 (stereo not drawn),inactive: -6.16%
9,CP(=O)(Nc1cccc(Br)c1)Oc1ccccc1 (stereo not drawn),inactive: 1.76%
10,Cc1cc(C)cc(OP(C)(=O)Nc2ccccn2)c1 (stereo not drawn),inactive: 7.96%
11,CCOC(=O)c1ccc(NP(C)(=O)Oc2cc(C)cc(C)c2)cc1 (stereo not drawn),inactive: 8.09%
12,Cc1cc(C)cc(OP(C)(=O)Nc2ccc(C)cc2C)c1 (stereo not drawn),inactive: 1.35%
13,COc1ccccc1OP(C)(=O)Nc1cccc(Br)c1 (stereo not drawn),inactive: 1.75%
14,CC1=NCCc2c1[nH]c1ccccc21.O=[N+]([O-])c1cc([N+](=O)[O-])c(O)c([N+](=O)[O-])c1,inactive: 10.3%
15,O=[N+]([O-])c1cccc([N+](=O)[O-])c1,inactive: 8.25%
16,Cc1cc(C)cc(OP(C)(N)=O)c1 (stereo not drawn),inactive: 5.87%
17,COc1ccccc1OP(C)(=O)Nc1cc(Cl)ccc1C (stereo not drawn),inactive: -3.07%
18,COc1ccc(OP(C)(=O)Nc2cccc(F)c2)cc1 (stereo not drawn),inactive: 10.7%
19,COc1ccccc1OP(C)(=O)Nc1ccc(C)cc1 (stereo not drawn),inactive: 1.95%
20,Cc1ccc(NP(C)(=O)Oc2ccccc2)c(C)c1 (stereo not drawn),inactive: -2.74%

row,SMILES,"activity change, negative = inhibition"
1,CCOC(=O)c1ccc(NP(C)(=O)Oc2ccccc2)cc1 (stereo not drawn),inactive: 8.24%
2,O=[N+]([O-])c1ccc2c(c1)C=Nc1ccccc1O2,inactive: -0.296%
3,CC(C)(C)c1ccc(OP(C)(=O)Nc2ccc(SC(F)(F)F)cc2)cc1 (stereo not drawn),inactive: 8.61%
4,Cc1cccc(C)c1OP(C)(N)=O (stereo not drawn),inactive: -2.93%
5,CCN(CC)CCCOC(=O)C(O)(c1ccccc1)c1ccccc1,inactive: 2.01%
6,CP(=O)(Nc1ccccn1)Oc1ccc(Cl)cc1 (stereo not drawn),inactive: 0.476%
7,CCOC(=O)c1ccc(NP(C)(=O)Oc2ccc(OC)cc2)cc1 (stereo not drawn),inactive: 3.88%
8,CN(C)CCS,inactive: -3.1%
9,CCOP(C)(=S)SCC(=O)NC(C)C(=O)O (stereo not drawn),inactive: -9.14%
10,CCc1ccc(OP(C)(=O)N2CCN(c3ccc([N+](=O)[O-])cc3)CC2)cc1 (stereo not drawn),inactive: 8.69%
11,CP(=O)(NC(=O)Nc1ccccc1)Oc1ccccc1 (stereo not drawn),inactive: -2.12%
12,Cc1cc(C)cc(OP(C)(=O)Nc2ccc(SC(F)(F)F)cc2)c1 (stereo not drawn),inactive: 13.6%
13,CP(=O)(Nc1ccc(SC(F)(F)F)cc1)Oc1ccc(Cl)cc1 (stereo not drawn),inactive: 0.345%
14,Cc1cccc(C)c1OP(C)(=O)Nc1ccc(SC(F)(F)F)cc1 (stereo not drawn),inactive: 3.38%
15,CP(=O)(Oc1ccccc1)OC(c1ccccc1)C(F)(F)F (stereo not drawn),inactive: -0.894%
16,CP(=O)(Nc1ccccc1Br)Oc1ccccc1 (stereo not drawn),inactive: 10.1%
17,COc1ccccc1OP(C)(=O)Nc1ccccc1 (stereo not drawn),inactive: 12.1%
18,CP(=S)(Nn1cnnc1)Oc1ccccc1 (stereo not drawn),inactive: 2.15%
